Literature values as cited in PMC8232766, “Chemical Composition and Immunomodulatory Activity of Essential Oils from Rhododendron albiflorum” (Molecules, 2021).

Tests used:
human neutrophils [1] = system: human neutrophils; set-up: method as in PMID 27586050, PMID 25959257; conditions: direct effect; previous studies; cited from earlier work
human neutrophils [2] = conditions: previous studies; cited from earlier work

For (E/Z)-β-ocimene, the “Activation of neutrophil Ca2+ mobilization” value (human neutrophils [1]) is given as “no activating effects” and the “Inhibition of agonist-induced neutrophil Ca2+ mobilization” value (human neutrophils [2]) is given as “no inhibitory effect”.
